Reference: ChEMBL document CHEMBL6153072, “Metabolically Stable Adenylation Inhibitors of Biotin Protein Ligase as Antibacterial Agents” (J Med Chem, 2025)

Biological target: T1, Biotin--[acetyl-CoA-carboxylase] ligase (Mycobacterium tuberculosis (strain ATCC 25618 / H37Rv), UniProt I6YFP0)
T1 sequence (I6YFP0 whole entry): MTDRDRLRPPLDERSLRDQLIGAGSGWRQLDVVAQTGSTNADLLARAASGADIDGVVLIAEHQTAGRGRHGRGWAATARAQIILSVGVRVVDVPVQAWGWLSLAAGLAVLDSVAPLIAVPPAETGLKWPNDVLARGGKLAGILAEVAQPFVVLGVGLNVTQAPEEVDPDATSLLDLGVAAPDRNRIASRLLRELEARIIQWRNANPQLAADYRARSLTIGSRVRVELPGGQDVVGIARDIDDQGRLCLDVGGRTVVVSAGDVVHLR
Experiment: Binding affinity to Mycobacterium tuberculosis BPL assessed as dissociation constant by isothermal titration calorimetry

## Nc1ncnc2c1ncn2[C@@H]1O[C@H](CNS(=O)(=O)[N-]C(=O)NCCC[C@@H]2SC[C@@H]3NC(=O)N[C@@H]32)[C@@H](O)[C@H]1O.[Na+]
  Kd: 7 nM
